Tested on: BT474 human breast cancer tumors
Test: BT474 breast cancer subcutaneous xenograft model
Format: in vivo, athymic nude mice
Protocol: Six to seven-week old female BALB/c athymic, ovariectomized nude mice (Harlan Sprague-Dawley) were implanted with 0.72 mg, 60-day release 17β-estradiol pellets (Innovative Research). […] Mice were treated with 20 mg/kg body weight of MIX24, HER2-205 or trastuzumab in PBS by intraperitoneal (IP) injection (3 doses evenly administered over 7 days). Tumor volumes in each group were then monitored and mice were sacrificed when tumor volumes reached 1000 mm^3. Error bars represent standard error of the mean. Tumor tripling time was calculated as the time required for tumors to increase in volume […] over baseline (defined as tumor volume before administration of dose on first day of treatment). Harvested tumors were fixed in 10% neutral buffered formalin and processed by Yale Pathology Tissue Services for H&E, Caspase 3, HER2, and Ki67. Images were taken at 4× magnification.

## trastuzumab [reference compound]
20 mg/kg IP, 3 doses over 7 days
  tumor tripling time post-initial dose: 24 ± 2.1 days
HER2-positive breast cancer xenografts
  reduction in tumor volumes compared to controls: 58%
